Ab-14 heavy chain CDR variants: yeast mating affinities

Reference: Li et al. 2023, doi:10.1038/s41467-023-39022-2. File: FLAb, binding data.

Binding partner: SARS-CoV-2 spike HR2 peptide, sequence PDVDLGDISGINAS.

Ab-14 is the parent antibody, in scFv form: VH, then the linker GGGGSGGGGSGGGGS, then VL. The light chain is unchanged in all variants.
VH: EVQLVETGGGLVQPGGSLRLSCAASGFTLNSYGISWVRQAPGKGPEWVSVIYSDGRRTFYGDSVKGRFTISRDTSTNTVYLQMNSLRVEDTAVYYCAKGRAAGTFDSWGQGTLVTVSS
VL: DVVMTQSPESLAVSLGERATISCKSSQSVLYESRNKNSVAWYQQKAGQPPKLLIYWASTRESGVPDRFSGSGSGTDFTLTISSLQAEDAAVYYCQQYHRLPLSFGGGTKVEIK

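The parent was found by panning a naive human phage display library on the peptide. Designed CDR sequences, proposed from the first random library and measured here. Group labels follow the data file (Ctrl: baseline library sampled from a position-specific scoring matrix, with some repeated check sequences; GP: Gaussian process model; HC: hill climbing; a sequence that several methods proposed may carry one label only). Affinity was read by AlphaSeq, a pooled yeast mating assay with surface-displayed partners. Mating (16 h, 30 °C) was followed by selection of diploids and sequencing of their barcodes. Read counts were normalised to the haploid input and turned into Kd by a linear fit to BCL2-family pairs of known affinity, for each replicate. The assay was run in six technical replicates.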

Each variant is given by its three heavy chain CDRs, as the data file delimits them; those of the parent are GFTLNSYGIS, VIYSDGRRTFYGDSVK, GRAAGTFDS. Numbers give log10(Kd / nM), so 0 is 1 nM and 3 is 1 µM. Smaller is tighter. "n.d." means that the variant was in the library but no mating with the target was seen in that replicate; the authors take this as a sign of poor binding, and no number exists. The range of this assay differs from that of the first round, and the authors advise against merging the two. In the paper, a design with two or fewer of six values counts as a poor binder. Where one sequence has several entries in the source, the replicates are listed entry by entry, parted by semicolons. Nonspecific signal, from three strains lacking the peptide, appeared in 1% of pairings of all heavy chain designs, centred on 2.08 (5% of these signals below 0.84); values are not corrected for it. Also given: how often the same scFv was detected with the empty control strains, with their mean in brackets.

{"CDR-H1": "GFTLNSYGIS", "CDR-H2": "VIYADGRRTAYGDSVK", "CDR-H3": "GRIAGTFDS", "group": "Ctrl", "log10 Kd (nM) by replicate": "-0.05 0.12 -0.37 -0.33 -0.50 -0.09", "signal with controls": "0/18"}
{"CDR-H1": "GHTLESYGIT", "CDR-H2": "VIYSDGRRTFYGDAVK", "CDR-H3": "GRRAGTFDS", "group": "Ctrl", "log10 Kd (nM) by replicate": "n.d. n.d. n.d. n.d. n.d. n.d.", "signal with controls": "0/18"}
{"CDR-H1": "GFTLNQYGIS", "CDR-H2": "VIYSDGRRTFYGDSVK", "CDR-H3": "GRNAGTFDS", "group": "Ctrl", "log10 Kd (nM) by replicate": "1.05 1.48 n.d. 0.20 0.32 0.10", "signal with controls": "0/18"}
{"CDR-H1": "GFTLESYGIS", "CDR-H2": "VIYSDCRRTFYGDSVK", "CDR-H3": "GQAAGMFDS", "group": "Ctrl", "log10 Kd (nM) by replicate": "n.d. n.d. n.d. n.d. n.d. 2.24", "signal with controls": "1/18 (1.64)"}
{"CDR-H1": "GFTLNSYGIS", "CDR-H2": "VIYSDGRRTFYGGSVK", "CDR-H3": "GEAAGTFDS", "group": "Ctrl", "log10 Kd (nM) by replicate": "n.d. n.d. n.d. n.d. n.d. n.d.", "signal with controls": "0/18"}
{"CDR-H1": "GFPLNLFGIS", "CDR-H2": "VIYSDGRRTFYGDSVK", "CDR-H3": "GRAAGTFDS", "group": "Ctrl", "log10 Kd (nM) by replicate": "n.d. n.d. n.d. n.d. n.d. n.d.", "signal with controls": "0/18"}
{"CDR-H1": "GFTLNSYGIS", "CDR-H2": "VIYSDGRRTFYGDSVK", "CDR-H3": "GRAAGQFDS", "group": "Ctrl", "log10 Kd (nM) by replicate": "n.d. n.d. n.d. n.d. n.d. n.d.", "signal with controls": "0/18"}
{"CDR-H1": "GFTLNSYGIS", "CDR-H2": "VIYSDGVRTAYGDSVK", "CDR-H3": "GRAAGTFDS", "group": "Ctrl", "log10 Kd (nM) by replicate": "n.d. n.d. n.d. 1.15 n.d. n.d.", "signal with controls": "0/18"}
{"CDR-H1": "GFTLNSYGIS", "CDR-H2": "VLYSDGRRCFYGDSVK", "CDR-H3": "GRAAGTFDS", "group": "Ctrl", "log10 Kd (nM) by replicate": "n.d. n.d. n.d. n.d. n.d. n.d.", "signal with controls": "0/18"}
{"CDR-H1": "GFNLNSYGIS", "CDR-H2": "VIVSDGRRTFYGDSVK", "CDR-H3": "GRAAGTFDS", "group": "Ctrl", "log10 Kd (nM) by replicate": "n.d. n.d. n.d. n.d. n.d. n.d.", "signal with controls": "0/18"}
{"CDR-H1": "GFTLNSYGIS", "CDR-H2": "VIYSDGRRNFYQDSVK", "CDR-H3": "GRAAGTFDS", "group": "Ctrl", "log10 Kd (nM) by replicate": "n.d. n.d. n.d. n.d. n.d. n.d.", "signal with controls": "0/18"}
{"CDR-H1": "GFTLNSYGIS", "CDR-H2": "VIYSDGRRTFYGDSVK", "CDR-H3": "GRAAGTFPS", "group": "Ctrl", "log10 Kd (nM) by replicate": "n.d. n.d. n.d. n.d. n.d. n.d.", "signal with controls": "0/18"}
{"CDR-H1": "GFTLDSYGIS", "CDR-H2": "VIYSDGRRTFYHDSVK", "CDR-H3": "GRAAGTFDS", "group": "Ctrl+GP_HC", "log10 Kd (nM) by replicate": "0.93 1.05 1.38 1.23 0.95 0.95; 1.22 0.61 0.14 0.30 0.77 0.96", "signal with controls": "0/36"}
{"CDR-H1": "GFTLNDYGIS", "CDR-H2": "VIYSDGRRTFYDGSVK", "CDR-H3": "GRATGTFDS", "group": "Ctrl", "log10 Kd (nM) by replicate": "n.d. n.d. n.d. n.d. n.d. n.d.", "signal with controls": "0/18"}
{"CDR-H1": "GFTLDSYGIS", "CDR-H2": "VIYSDGRRTGYGDSVK", "CDR-H3": "GRAAGTFDS", "group": "Ctrl", "log10 Kd (nM) by replicate": "n.d. -0.05 -0.31 -0.22 n.d. 0.28", "signal with controls": "0/18"}
{"CDR-H1": "GNTLNSYGIS", "CDR-H2": "VIYSDGRRTFYGGKVK", "CDR-H3": "GLAAGTFDS", "group": "Ctrl", "log10 Kd (nM) by replicate": "n.d. n.d. n.d. n.d. n.d. n.d.", "signal with controls": "0/18"}
{"CDR-H1": "GFTLNSYGIS", "CDR-H2": "VIYSDGRRTFYGDSVK", "CDR-H3": "GREALTFSS", "group": "Ctrl", "log10 Kd (nM) by replicate": "n.d. n.d. n.d. n.d. n.d. n.d.; n.d. n.d. n.d. n.d. n.d. n.d.; n.d. n.d. n.d. n.d. n.d. n.d.; n.d. n.d. n.d. n.d. n.d. n.d.", "signal with controls": "0/72"}
{"CDR-H1": "GFELNMYGIS", "CDR-H2": "VIYSDGRRTFYGDSVK", "CDR-H3": "GRAAGTFDS", "group": "Ctrl", "log10 Kd (nM) by replicate": "0.99 1.07 1.23 1.22 0.95 1.17", "signal with controls": "0/18"}
{"CDR-H1": "GFTLNDYGIS", "CDR-H2": "VIYSDGRRTFYADSVK", "CDR-H3": "GRAAGTFPS", "group": "Ctrl", "log10 Kd (nM) by replicate": "n.d. n.d. n.d. n.d. n.d. n.d.", "signal with controls": "0/18"}
{"CDR-H1": "RFTLNSYGIS", "CDR-H2": "VIYSDGRRTFYGDSVK", "CDR-H3": "HRAAGTFDP", "group": "Ctrl", "log10 Kd (nM) by replicate": "n.d. n.d. n.d. n.d. n.d. n.d.", "signal with controls": "0/18"}

Picked from the list: the 2 lowest averages where every replicate gave a value.

CDR-H1,CDR-H2,CDR-H3,group,log10 Kd (nM) by replicate,signal with controls
GFTLNSYGIS,VIYADGRRTAYGDSVK,GRIAGTFDS,Ctrl,-0.05 0.12 -0.37 -0.33 -0.50 -0.09,0/18
GFTLDSYGIS,VIYSDGRRTFYHDSVK,GRAAGTFDS,Ctrl+GP_HC,0.93 1.05 1.38 1.23 0.95 0.95; 1.22 0.61 0.14 0.30 0.77 0.96,0/36